The list shows a part of the results, in another mix than the full data. Results with a measured potency or affinity are listed apart. The source made the active and inactive calls.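 The calls were made as follows: active = inhibition of at least 50% with at least 30 cells and total cytoplasm GFP at most 10,000,000; inconclusive = under 30 cells or total GFP of 10,000,000 plus; inactive = the rest.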
target: G-protein coupled receptor 35 (Homo sapiens) (UniProt Q9HC97); assay: inhibition of zaprinast-stimulated GPR35 beta-arrestin translocation – imaging, U2OS, beta-arrestin-GFP, zaprinast agonist, primary screen (AID 2058); conditions: zaprinast antagonism, at 10 µM, hits give high values

Sequences of proteins named here, by UniProt entry; tags and fusion partners are left off. A change or cut given only in a name is not applied to a line headed by its entry.
UniProt Q9HC97: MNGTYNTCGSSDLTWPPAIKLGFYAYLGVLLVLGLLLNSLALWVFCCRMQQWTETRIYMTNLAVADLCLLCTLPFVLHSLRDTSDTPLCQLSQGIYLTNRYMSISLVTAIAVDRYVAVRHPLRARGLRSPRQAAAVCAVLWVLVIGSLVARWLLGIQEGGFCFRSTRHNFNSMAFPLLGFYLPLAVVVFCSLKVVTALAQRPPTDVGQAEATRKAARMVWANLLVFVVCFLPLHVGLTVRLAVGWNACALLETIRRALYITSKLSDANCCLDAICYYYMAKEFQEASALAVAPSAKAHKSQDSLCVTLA

Compound | inhibition
CN(C(=O)Cc1ccccc1)[C@@H]1CC[C@]2(CCCO2)C[C@H]1N1CCCC1 | inactive: 15.5%
CCOP1(=S)c2c(C)nn(CCC#N)c2N=C(c2ccc(F)cc2)N1C (centres undefined) | inactive: 17.4%
CS(=O)(=O)c1cc([N+](=O)[O-])c2no[n+]([O-])c2c1 | inactive: 2.7%
CCOP1(=S)c2c(C)nn(CCC#N)c2N=C(c2ccccc2F)N1C (centres undefined) | inactive: -10.3%
O=P(Nc1nccs1)(Oc1ccccc1)Oc1ccccc1 | inactive: 3.6%
O=P(Nc1nccs1)(c1ccccc1)c1nc2ccccc2s1 (centres undefined) | inactive: -7.9%
O=C(O)COc1ccc([As](=O)(O)O)cc1[N+](=O)[O-] | inactive: 27.6%
Nc1ccccc1[As](=O)(O)c1ccccc1 | inactive: 3.5%
CC(C)c1ccc(OP(=O)(Nc2ccccn2)Oc2ccccc2F)cc1 (centres undefined) | inactive: -3.5%
ClCCSc1nnc(-c2cccnc2)o1 | inactive: -11.5%
CC(C)NC(=O)NP(=O)(Oc1ccccc1)Oc1ccccc1 | inactive: 2.2%
CCN(CC)C(=S)SC(NC=O)C(Cl)(Cl)Cl (centres undefined) | inactive: 24.4%
O=[N+]([O-])c1cc([N+](=O)[O-])c(-c2ccn[nH]2)s1 | inactive: -4.4%
C[As](=O)(O)c1cccc(C(=O)O)c1 | inactive: 19.8%
O=[As](O)(c1ccc(O)cc1)c1ccccc1O | inactive: 15.5%
Cc1ccc2nc3c(c(C)c2c1)CC(C(Cl)Cl)S3 (centres undefined) | inactive: -6.3%
Cc1ccc(OP(=O)(Nc2ccc([N+](=O)[O-])cn2)Oc2ccc(C)cc2)cc1 | inactive: 17.4%

Compound | inhibition
COc1ccc(N/C(=N/P(=O)(N2CCOCC2)N2CCOCC2)N2CCOCC2)cc1 | inactive: -2.1%
O=C(OC1CN2CCC1CC2)C12CC3CC(CC(C3)C1)C2 (centres undefined) | inactive: -6.5%
Cc1cc(=O)[nH]c(N[N+](=O)[O-])n1 | inactive: -3.9%
COc1ccc2nc(NP(=O)(c3ccccc3)c3ccccc3)sc2c1 | inactive: 2%
COc1cc(I)ccc1[As](=O)(O)O | inactive: -9.7%
CCOC(=O)c1ccc(NC(=O)C(C)(CCl)SC)cc1 (centres undefined) | inactive: -1.7%
O=C(OC1CN2CCC1CC2)c1cccc([N+](=O)[O-])c1 (centres undefined) | inactive: 11.5%
CCC(C)N(CC(C)C)C(=S)SC(NC(C)=O)C(Cl)(Cl)Cl (centres undefined) | inactive: -3.7%
COP1(=S)c2c(C)nn(CCC#N)c2N=C(c2ccc(F)cc2)N1C (centres undefined) | inactive: -11.8%
O=C(COc1ccccc1)OC1CN2CCC1CC2 (centres undefined) | inactive: 1.5%
O=C(Nc1ccncc1[N+](=O)[O-])c1ccc([N+](=O)[O-])cc1[N+](=O)[O-] | inactive: 0.7%
CCOC(=O)Nc1cccc([As](=O)(O)O)c1 | inactive: 10.2%
O=[N+]([O-])c1ccc(Nc2ccc(Oc3ccc([N+](=O)[O-])cc3[N+](=O)[O-])cc2)c([N+](=O)[O-])c1 | inactive: 9.8%
Cc1cc(SC(NC=O)C(Cl)(Cl)Cl)ncn1 (centres undefined) | inactive: -11.9%
CCOC(=O)Nc1ccc([As](=O)(O)O)c(O)c1 | inactive: -5.2%
CCCCOc1ccc(C(=O)NCC2(N3CCCCC3)CCCCC2)cc1OC | inactive: 0.9%
Cc1cc(SC(NC(=O)c2ccccc2)C(Cl)(Cl)Cl)nc(C(C)C)n1 (centres undefined) | inactive: -17.8%

From PubChem BioAssay AID2058 (Sanford-Burnham Center for Chemical Genomics, 2009)
